Counter-ions that a name gives are not always drawn.
How the values were obtained:
5-HT2A receptor [1] = target: T1, 5-HT2A receptor (Homo sapiens, UniProt P28223); test: Affinity for 5-HT2A receptor binding sites, radioligand binding with [3H]ketanserin; settings: read-out: Ki 5-HT2A, rat cortex membranes (assay 2) or NIH3T3 h5-HT2A membranes (assay 3), table does not say which
5-HT2A receptor [2] = target: T1, 5-HT2A receptor; test: In vitro functional assay for 5-HT2 receptor (intracellular calcium, FLIPR), 5-HT2A; type: cell-based; settings: same cell lines as receptor binding, read-out: pKb 5-HT2A (converted)
From the text: The 5-HT2 receptors are linked to the Gq family of G proteins and to subsequent activation of phospholipase C, induction of phosphoinositide metabolism and to an increase in intracelular calcium concentration. The same cell lines as described in the previous section (receptor binding) were used for the FLIPR experiments.

Structure (SMILES)	Ki (5-HT2A receptor [1]) [nM]	Kb (5-HT2A receptor [2]) [nM]
CCC(C)c1nc2c(c(-c3ccc(F)cc3)n1)CNCC2 (centres unmarked) [Example 3, 2-sec-Butyl-4-(4-fluoro-phenyl)-5,6,7,8-tetrahydro-pyrido[4,3-d]pyrimidine hydrochloride]	11	–
CC(C)Cc1nc2c(c(-c3ccc(F)cc3)n1)CNCC2 [Example 37, 4-(4-Fluoro-phenyl)-2-isobutyl-5,6,7,8-tetrahydro-pyrido[4,3-d]pyrimidine]	40	–
Cc1ccc(-c2nc(C3CCCC3)nc3c2CCNCC3)cc1 [Example 47, 2-Cyclopentyl-4-p-tolyl-6,7,8,9-tetrahydro-5H-pyrimido[4,5-d]azepine]	2.5	–
Fc1ccc(-c2nc(Cc3ccccc3)nc3c2CNCCC3)cc1 [Example 69, 2-Benzyl-4-(4-fluoro-phenyl)-6,7,8,9-tetrahydro-5H-1,3,6-triaza-benzocycloheptene hydrochloride]	140	1000
